{"source": "patent US6599896B1", "about": "“Use of tianeptine in the production of medicaments to treat neurodegenerative pathologies” (Les Laboratoires Servier, priority 1999, dated 2003)", "test_system": "purified embryonic motoneurons", "assay": "Death of motoneurons deprived of growth factors (survival count)", "format": "cell-based, rat", "settings": "2.5 days of culture; FIG. 5"}
{"molecule": "CN1c2ccccc2C(NCCCCCCC(=O)O)c2ccc(Cl)cc2S1(=O)=O", "note": "(stereo not shown) [tianeptine]", "values": [{"measurement": "survival of motoneurons deprived of growth factors", "result": "prevents the motoneurons from dying"}]}
